In this assay the target is CREB-binding protein (Homo sapiens) (UniProt Q92793). Put plainly: Inhibition of CBP (unknown origin) at 10 uM by CBR HAT assay relative to control.

Amino acid sequences for entries named in this document (tags omitted).
UniProt Q92793, whole entry, looked up: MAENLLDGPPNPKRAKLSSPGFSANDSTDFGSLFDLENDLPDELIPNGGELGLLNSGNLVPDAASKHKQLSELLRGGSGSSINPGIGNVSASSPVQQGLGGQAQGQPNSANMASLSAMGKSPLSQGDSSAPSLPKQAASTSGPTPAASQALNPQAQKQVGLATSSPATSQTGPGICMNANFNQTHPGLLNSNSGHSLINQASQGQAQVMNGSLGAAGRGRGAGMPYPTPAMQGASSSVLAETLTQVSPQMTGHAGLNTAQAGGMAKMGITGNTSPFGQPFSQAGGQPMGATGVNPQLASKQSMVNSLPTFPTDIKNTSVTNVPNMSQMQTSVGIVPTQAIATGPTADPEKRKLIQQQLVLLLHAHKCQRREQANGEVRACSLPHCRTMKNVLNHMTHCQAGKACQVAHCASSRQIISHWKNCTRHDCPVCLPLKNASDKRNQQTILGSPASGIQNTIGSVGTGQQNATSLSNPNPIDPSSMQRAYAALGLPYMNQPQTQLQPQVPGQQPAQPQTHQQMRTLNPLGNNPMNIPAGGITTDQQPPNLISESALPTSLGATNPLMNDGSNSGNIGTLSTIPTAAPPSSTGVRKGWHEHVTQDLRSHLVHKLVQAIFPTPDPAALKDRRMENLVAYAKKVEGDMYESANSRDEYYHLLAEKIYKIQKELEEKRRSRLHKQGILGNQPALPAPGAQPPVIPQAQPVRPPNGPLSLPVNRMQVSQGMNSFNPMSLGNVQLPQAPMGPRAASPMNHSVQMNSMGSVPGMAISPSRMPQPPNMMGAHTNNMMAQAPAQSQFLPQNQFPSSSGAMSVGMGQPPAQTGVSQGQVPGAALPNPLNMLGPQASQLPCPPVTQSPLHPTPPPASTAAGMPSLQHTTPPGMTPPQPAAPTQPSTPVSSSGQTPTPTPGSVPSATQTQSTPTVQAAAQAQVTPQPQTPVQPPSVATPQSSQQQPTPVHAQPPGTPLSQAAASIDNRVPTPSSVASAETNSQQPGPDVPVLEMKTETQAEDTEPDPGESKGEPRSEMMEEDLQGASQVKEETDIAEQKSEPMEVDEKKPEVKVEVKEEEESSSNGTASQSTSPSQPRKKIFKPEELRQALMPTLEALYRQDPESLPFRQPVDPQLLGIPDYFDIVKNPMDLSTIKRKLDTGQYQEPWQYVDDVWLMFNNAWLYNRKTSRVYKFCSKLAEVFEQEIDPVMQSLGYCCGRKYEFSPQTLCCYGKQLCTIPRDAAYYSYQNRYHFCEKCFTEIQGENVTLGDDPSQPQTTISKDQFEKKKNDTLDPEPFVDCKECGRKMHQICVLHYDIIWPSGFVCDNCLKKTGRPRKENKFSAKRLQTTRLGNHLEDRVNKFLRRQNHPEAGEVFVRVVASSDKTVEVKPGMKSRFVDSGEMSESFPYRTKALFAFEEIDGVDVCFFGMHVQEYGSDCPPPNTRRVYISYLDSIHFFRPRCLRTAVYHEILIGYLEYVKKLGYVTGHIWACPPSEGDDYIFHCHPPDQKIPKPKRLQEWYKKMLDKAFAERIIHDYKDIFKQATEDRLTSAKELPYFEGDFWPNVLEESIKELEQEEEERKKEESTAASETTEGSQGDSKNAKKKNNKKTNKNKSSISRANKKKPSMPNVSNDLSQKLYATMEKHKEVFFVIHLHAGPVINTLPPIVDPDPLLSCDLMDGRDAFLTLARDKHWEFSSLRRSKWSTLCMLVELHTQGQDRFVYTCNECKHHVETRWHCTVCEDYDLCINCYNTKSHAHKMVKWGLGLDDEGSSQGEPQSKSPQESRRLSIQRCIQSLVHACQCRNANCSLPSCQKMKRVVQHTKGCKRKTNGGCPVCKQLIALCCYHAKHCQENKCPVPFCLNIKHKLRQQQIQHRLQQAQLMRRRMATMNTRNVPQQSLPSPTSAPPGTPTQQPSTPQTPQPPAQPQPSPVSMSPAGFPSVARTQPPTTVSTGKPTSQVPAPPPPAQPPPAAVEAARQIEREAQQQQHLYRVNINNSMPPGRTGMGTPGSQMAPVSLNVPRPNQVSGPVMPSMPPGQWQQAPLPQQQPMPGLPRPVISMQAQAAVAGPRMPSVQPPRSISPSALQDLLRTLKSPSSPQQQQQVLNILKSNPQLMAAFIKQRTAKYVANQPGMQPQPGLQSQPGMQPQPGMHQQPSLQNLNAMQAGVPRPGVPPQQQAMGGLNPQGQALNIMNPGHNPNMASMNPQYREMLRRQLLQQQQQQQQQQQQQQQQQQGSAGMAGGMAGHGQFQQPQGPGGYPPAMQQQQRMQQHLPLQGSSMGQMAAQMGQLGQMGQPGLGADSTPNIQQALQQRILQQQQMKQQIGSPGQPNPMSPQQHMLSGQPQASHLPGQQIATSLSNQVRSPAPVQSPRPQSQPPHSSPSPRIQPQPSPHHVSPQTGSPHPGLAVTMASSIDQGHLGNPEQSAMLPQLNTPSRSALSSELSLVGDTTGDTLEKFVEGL

The record followed here is ChEMBL document CHEMBL5625280, “Discovery of novel nucleoside derivatives as selective lysine acetyltransferase p300 inhibitors for cancer therapy” (Bioorg Med Chem Lett, 2024).

The inhibition is the relative decrease from the control value, in per cent. Regarding `Nc1ccn(Cc2ccc(-c3cn(CCCC(=O)O)nn3)cc2)c(=O)n1`, the inhibition was 28%.
With `CCOC(=O)CCCn1cc(-c2ccc(Cn3ccc(N)nc3=O)cc2)nn1`, the inhibition is 33%.
The value for `CCOC(=O)CCCCCCn1cc(Cn2cnc(N)nc2=O)nn1` was 21%; that for `COC(=O)c1ccc(CCCCn2cc(Cn3cc(F)c(N)nc3=O)nn2)cc1` was 3%.
As for `COC(=O)c1ccc(CCCCn2cc(-c3ccc(Cn4ccc(=O)[nH]c4=O)cc3)nn2)cc1`, the figure is 36%; as for `CCOC(=O)CCCCn1cc(-c2ccc(Cn3ccc(N)nc3=O)cc2)nn1`, 28%; as for `Nc1ccn(Cc2ccc(-c3cn(CCCCCCC(=O)O)nn3)cc2)c(=O)n1`, 25%.
The value for `CCOC(=O)CCCCCn1cc(Cn2cnc3c(N)ncnc32)nn1` was 4%; that for `Nc1ccn(Cc2ccc(-c3cn(CCCCc4ccc(C(=O)O)cc4)nn3)cc2)c(=O)n1` was 34%; that for `COC(=O)c1ccc(CCCCn2cc(Cn3ccc(=O)[nH]c3=O)nn2)cc1` was 11%.
Regarding `COC(=O)c1ccc(CCCCn2cc(-c3ccc(Cn4cc(C)c(N)nc4=O)cc3)nn2)cc1`, the inhibition was 36%.
The value for `CCOC(=O)CCCCCn1cc(Cn2cc(F)c(N)nc2=O)nn1` was 7%.
As for `COC(=O)c1ccc(CCCCn2cc(-c3ccc(Cn4cc(F)c(N)nc4=O)cc3)nn2)cc1`, the figure is 36%; as for `CCOC(=O)CCCCCn1cc(Cn2ccc(N)nc2=O)nn1`, 0%; as for `CCOC(=O)CCCCCCn1cc(-c2ccc(Cn3cc(C)c(N)nc3=O)cc2)nn1`, 5%.
As for `COC(=O)c1ccc(CCCCn2cc(Cn3cnc4c(N)ncnc43)nn2)cc1`, the figure is 15%; as for `CCOC(=O)CCCCCn1cc(Cn2cnc(N)nc2=O)nn1`, 1%.
On to `CCOC(=O)CCCCCCn1cc(-c2ccc(Cn3cnc(N)nc3=O)cc2)nn1`, for which the inhibition worked out at 20%.
As for `CCOC(=O)CCCCCn1cc(Cn2ccc(=O)[nH]c2=O)nn1`, the figure is -4%.
The value for `Nc1ccn(Cc2ccc(-c3cn(CCCCC(=O)O)nn3)cc2)c(=O)n1` was 31%.
On to `Cc1cn(Cc2cn(CCCCc3ccc(C(=O)O)cc3)nn2)c(=O)nc1N`, for which the inhibition was determined as 11%.
The value for `Nc1ccn(Cc2ccc(-c3cn(CCCCCC(=O)O)nn3)cc2)c(=O)n1` was 13%.
As for `COC(=O)c1ccc(CCCCn2cc(Cn3ccc(N)nc3=O)nn2)cc1`, the figure is 11%; as for `Nc1nc(=O)n(Cc2ccc(-c3cn(CCCCc4ccc(C(=O)O)cc4)nn3)cc2)cc1F`, 56%; as for `Nc1ccn(Cc2cn(CCCCc3ccc(C(=O)O)cc3)nn2)c(=O)n1`, 13%.
Regarding `CCOC(=O)CCCn1cc(-c2ccc(Cn3cnc(N)nc3=O)cc2)nn1`, the inhibition is 10%.
For the molecule `O=C(O)c1ccc(CCCCn2cc(-c3ccc(Cn4ccc(=O)[nH]c4=O)cc3)nn2)cc1`, the inhibition stood at 14%.
Turning to `Nc1ncnc2c1ncn2Cc1ccc(-c2cn(CCCCc3ccc(C(=O)O)cc3)nn2)cc1`, the inhibition is 32%.
As for `COC(=O)c1ccc(CCCCn2cc(Cn3cnc(N)nc3=O)nn2)cc1`, the inhibition was determined as 25%.
As for `COC(=O)c1ccc(CCCCn2cc(-c3ccc(Cn4cnc5c(N)ncnc54)cc3)nn2)cc1`, the figure is 59%; as for `CCOC(=O)CCCCCn1cc(-c2ccc(Cn3ccc(N)nc3=O)cc2)nn1`, 30%; as for `COC(=O)c1ccc(CCCCn2cc(-c3ccc(Cn4cnc(N)nc4=O)cc3)nn2)cc1`, 28%.
The value for `CCOC(=O)CCCCCn1cc(Cn2cc(C)c(N)nc2=O)nn1` was -3%; that for `Cc1cn(Cc2ccc(-c3cn(CCCCc4ccc(C(=O)O)cc4)nn3)cc2)c(=O)nc1N` was 15%; that for `CCOC(=O)CCCCCCn1cc(-c2ccc(Cn3cc(F)c(N)nc3=O)cc2)nn1` was 8%.
As for `CCOC(=O)CCCCCn1cc(-c2ccc(Cn3cnc(N)nc3=O)cc2)nn1`, the figure is 30%; as for `Nc1ncn(Cc2cn(CCCCc3ccc(C(=O)O)cc3)nn2)c(=O)n1`, 38%.
As for `COC(=O)c1ccc(CCCCn2cc(Cn3cc(C)c(N)nc3=O)nn2)cc1`, the inhibition stood at 4%.
Turning to `Nc1ncnc2c1ncn2Cc1cn(CCCCc2ccc(C(=O)O)cc2)nn1`, the inhibition came out at 16%.
As for `CCOC(=O)CCCCCCn1cc(-c2ccc(Cn3ccc(=O)[nH]c3=O)cc2)nn1`, the figure is -1%.
The value for `O=C(O)c1ccc(CCCCn2cc(Cn3ccc(=O)[nH]c3=O)nn2)cc1` was 2%.
As to `CCOC(=O)CCCCn1cc(-c2ccc(Cn3cnc(N)nc3=O)cc2)nn1`, the inhibition amounted to 20%.
The value for `Nc1nc(=O)n(Cc2cn(CCCCc3ccc(C(=O)O)cc3)nn2)cc1F` was 81%.
On to `CCOC(=O)CCCCCCn1cc(-c2ccc(Cn3ccc(N)nc3=O)cc2)nn1`, for which the inhibition came to 20%.
The value for `CCOC(=O)CCCn1cc(Cn2cnc(N)nc2=O)nn1` was 21%.
As for `CCOC(=O)CCCCCCn1cc(-c2ccc(Cn3cnc4c(N)ncnc43)cc2)nn1`, the figure is 5%; as for `CCOC(=O)CCCCn1cc(Cn2cnc(N)nc2=O)nn1`, 12%.
As for `COC(=O)c1ccc(CCCCn2cc(-c3ccc(Cn4ccc(N)nc4=O)cc3)nn2)cc1`, the figure is 62%.
